From ChEMBL document CHEMBL4823289, “Conformational-Analysis-Guided Discovery of 2,3-Disubstituted Pyridine IDO1 Inhibitors” (ACS Med Chem Lett, 2021)

By UniProt entry, the sequences of proteins in these tests, tags left out. Where a name states a change or a piece, a line headed by the entry shows the natural chain unless it says otherwise.
UniProt P28776: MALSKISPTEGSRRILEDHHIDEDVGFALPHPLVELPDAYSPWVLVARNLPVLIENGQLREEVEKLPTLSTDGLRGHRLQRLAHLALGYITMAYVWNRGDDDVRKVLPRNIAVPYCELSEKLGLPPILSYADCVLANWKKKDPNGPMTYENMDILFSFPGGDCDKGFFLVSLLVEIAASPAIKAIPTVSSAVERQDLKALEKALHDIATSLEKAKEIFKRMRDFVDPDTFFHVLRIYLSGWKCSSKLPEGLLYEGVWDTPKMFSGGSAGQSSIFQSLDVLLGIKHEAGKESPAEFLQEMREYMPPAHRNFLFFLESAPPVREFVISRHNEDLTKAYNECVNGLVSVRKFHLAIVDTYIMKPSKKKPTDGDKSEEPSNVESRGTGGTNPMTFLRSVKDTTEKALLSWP

Experiments:
Type in all cases: functional, organism-based
Set-up in all cases: scale not given: the % may be the effect or the level left
Conditions in all cases: time 5.0 day
[1] = target: Indoleamine 2,3-dioxygenase 1 (Mus musculus) (UniProt P28776); assay: In vivo inhibition of IDO1 in mouse xenografted with human SK-OV-3 cells assessed as reduction in tumor kynurenine AUEC at 180 mg/kg, po QD for 5 days measured up to 24 hrs after dosing relative to control
[2] = target: Indoleamine 2,3-dioxygenase 1 (Mus musculus) (UniProt P28776); assay: In vivo inhibition of IDO1 in mouse xenografted with human SK-OV-3 cells assessed as reduction in tumor kynurenine AUEC at 20 mg/kg, po QD for 5 days measured up to 24 hrs after dosing relative to control
[3] = target: Indoleamine 2,3-dioxygenase 1 (Mus musculus) (UniProt P28776); assay: In vivo inhibition of IDO1 in mouse xenografted with human SK-OV-3 cells assessed as reduction in tumor kynurenine AUEC at 120 mg/kg, po QD for 5 days measured up to 24 hrs after dosing relative to control

Activity [1]: 80%
Activity [2]: 58%
Activity [3]: 63%
SMILES: CC[C@@H](NC(=O)c1ccc(OC)nc1)[C@H]1CC[C@@H](c2ccnc(OC)c2C(F)F)CC1
